This data set has as its system Ea.hy926 cells co-cultured with HLA-A2-reactive CAR T cells. Type of data set: cell-based. The note with it: effector:target 2:1, 1:2 and 1:10, 18 hours. On the procedure: The experiment was performed similar to previously described PBMC/Ea.hy926 co-culture experiments by replacing the effector with CAR-T cells. Ea.hy926 cells were engineered with polymers in UW solution as outlined. Cryopreserved CAR T cells were thawed using standard protocol41 and were pelleted and resuspended in phenol-free DMEM (5% FBS, pen/strep) at an effector (CAR-T cell) to target (Ea.hy926) ratios of 2:1, 1:2 and 1:10 (Vf=100 μL). After 18 hours, supernatants were removed from the wells and PBMCs were removed through centrifugation (300 g×5 minutes) and measured for LDH content to probe cell lysis using an LDH cytotoxicity assay (Biovision Inc.™). CAR-T cell-mediated cytotoxicity was calculated according to Eq. 2 replacing PBMC LDH release with CAR-T cell LDH release. LDH released by Ea.hy926 following 18 hour culture period that have not undergone polymer attachment and cultured in the absence of CAR-T cell is the 100% alive control and LDH released by Ea.hy926 following treatment with RIPA buffer for 10 minutes at ambient temperature is 100% dead control.

Take “Linear polyglycerol sulfate glutamine [LPGS-Q]”: the “CAR-T cell induced endothelial cell cytotoxicity” value is given as “performed similarly to non-sulfated counterparts”.

These data come from patent US20250059499A1, “CELL-SURFACE ENGINEERING COMPOSITIONS AND METHODS FOR THE PREVENTION OF IMMUNE REJECTION” (THE UNIVERSITY OF BRITISH COLUMBIA, priority 2021, published 2025).
